From PMC3510444 (Molecular Cell, 2012) come the findings set out here.

In this test the target is LC3C, purified, for fluorescence anisotropy (human, UniProt Q9BXW4 1-126). As to the kind of experiment: fluorescence polarisation; fluorescence anisotropy, equilibrium; purified ATG8 orthologs serially diluted and mixed with equal volumes of 100 nM FITC-labeled NDP52 peptides; PheraStar plate reader. To be noted: both partners purified. A general note: Fluorescence polarisation rises when a labelled molecule tumbles more slowly, as on binding a larger partner.

B1: FITC-labeled NDP52 CLIR peptide (aa 128-141), wild type (peptide, UniProt Q13137 128-141, looked up)
peptide: ENEEDILVVTTQGE
modifications: FITC label (end not stated)
notes: NDP52, human, CLIR region, 14-mer; also called CLIR^WT
Turning to B1, the Kd (commonly a measure of binding affinity in units of concentration) was found to be 1.6 µM.
